Assay results from patent US20120129834A1, “SEROTONIN RECEPTOR ANTAGONISTS FOR USE IN THE TREATMENT OF HUNTINGTON'S DISEASE” (BUCK INSTITUTE FOR RESEARCH ON AGING, priority 2010, published 2012).
Entries after “also recorded” stand apart in the source; their conditions may differ.

Assays:
caspase-3/7 = assay: caspase activation assay, STHdh111Q/111Q serum deprivation model; type: cell-based; conditions: dose/response, FIG. 17 lower panel, n=3/dose
striatal area = striatal area in brain sections of treated mice; type: in vivo, mouse; conditions: 7.5 mg/kg vs 0.9% saline and ntg, FIG. 22

caspase-3/7 activation (caspase-3/7): rescue
Structure (SMILES): CN1CCC(=C2c3ccccc3CCc3sccc32)CC1 [Pizotifen, 4-(1-methyl-4-piperidylidine)-9,10-dihydro-4H-benzo-[4,5]cyclohepta[1,2]-thiophene]
striatal area (striatal area): effective to preserve striatal area; also recorded: striatal area is preserved
